Protein sequences, listed by entry. Tags and fused reporters are not part of them.
UniProt P19643, whole entry: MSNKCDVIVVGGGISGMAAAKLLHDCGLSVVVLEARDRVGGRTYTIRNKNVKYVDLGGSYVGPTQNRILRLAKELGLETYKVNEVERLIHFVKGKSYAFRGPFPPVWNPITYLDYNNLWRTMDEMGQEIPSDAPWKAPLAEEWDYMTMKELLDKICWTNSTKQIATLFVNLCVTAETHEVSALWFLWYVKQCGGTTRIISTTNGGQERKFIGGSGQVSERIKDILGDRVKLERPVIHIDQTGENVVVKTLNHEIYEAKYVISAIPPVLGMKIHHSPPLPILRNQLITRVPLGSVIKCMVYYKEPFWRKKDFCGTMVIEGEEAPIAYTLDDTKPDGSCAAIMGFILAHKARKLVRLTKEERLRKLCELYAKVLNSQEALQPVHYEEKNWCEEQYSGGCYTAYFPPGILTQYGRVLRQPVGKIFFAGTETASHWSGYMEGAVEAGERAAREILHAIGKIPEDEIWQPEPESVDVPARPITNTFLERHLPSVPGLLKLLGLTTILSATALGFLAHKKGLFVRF
UniProt P21396, whole entry: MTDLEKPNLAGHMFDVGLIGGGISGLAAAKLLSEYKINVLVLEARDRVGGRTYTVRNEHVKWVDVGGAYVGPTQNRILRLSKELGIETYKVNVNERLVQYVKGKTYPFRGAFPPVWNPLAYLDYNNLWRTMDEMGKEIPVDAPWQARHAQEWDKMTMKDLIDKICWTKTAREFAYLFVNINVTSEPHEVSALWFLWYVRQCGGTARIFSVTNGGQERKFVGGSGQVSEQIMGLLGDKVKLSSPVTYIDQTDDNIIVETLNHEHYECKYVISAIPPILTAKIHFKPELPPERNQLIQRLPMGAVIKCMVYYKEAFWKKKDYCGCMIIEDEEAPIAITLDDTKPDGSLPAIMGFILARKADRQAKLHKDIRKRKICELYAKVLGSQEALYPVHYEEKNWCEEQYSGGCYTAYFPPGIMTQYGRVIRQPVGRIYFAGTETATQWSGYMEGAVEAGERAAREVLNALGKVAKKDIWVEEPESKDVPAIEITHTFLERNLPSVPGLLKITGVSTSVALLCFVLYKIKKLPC

According to patent EP2727916A1, “Neuroprotective multi-target directed drugs” (Universitat Autònoma de Barcelona, priority 2012, dated 2014):

Experiments:
MAO-B = biological target: T1, MAO-B (Rattus norvegicus, UniProt P19643); assay: Reversibility study of MAO-B inhibition (centrifugation and washing); assay type: biochemical; settings: 30 min inhibition (6 at 20 µM, I-deprenyl 20 nM); three consecutive centrifugations and washings with buffer
T1 construct: from tissue; host or cells: rat brain homogenate per the methods
Experimental: (§1) Lineweaver-Burk reciprocal plots of initial velocity and substrate concentrations (0.1-1 mM) are presented. […] Lineweaver-Burk reciprocal plots of initial velocity and substrate concentrations (0.1-1 mM) are presented. […] Lineweaver-Burk reciprocal plots of initial velocity and substrate concentrations (0.1-1 mM) are presented. […] Three consecutive centrifuges were performed with buffer. […] 5 µM). All solution were made using Tris buffer pH7.4. […] 5 µM). All solution were made using Tris buffer pH7.4. […] 5 µM). All solution were made using Tris buffer pH7.4. Spectra were obtained after a Short-time incubation

MAO-A = biological target: T2, MAO-A (Rattus norvegicus, UniProt P21396); assay: Reversibility study of MAO-A inhibition (centrifugation and washing); assay type: biochemical; settings: 30 min inhibition (6 at 10 µM, clorgyline 50 nM); three consecutive centrifugations and washings with buffer
T2 construct: from tissue; host or cells: rat brain homogenate per the methods
Experimental: as §1

| Compound | reversibility of MAO-B inhibition (MAO-B) | reversibility of MAO-A inhibition (MAO-A) |
| --- | --- | --- |
| C#CCN(C)[C@H](C)Cc1ccccc1 [I-deprenyl, reference compound] | remained unaltered |  |
| C#CCN(C)CCCOc1ccc(Cl)cc1Cl [clorgyline, reference compound] |  | remained unaltered |
